Test system: Cavia porcellus
Experiment: Protective ratio - quotient of LD50 of the treated group (guinea pig) over that of soman alone at given dose 92 (uM/Kg, id)
Settings: in vivo, other

Question: Which Protective ratio does the source give for `C[n+]1ccc(/C=C/c2cccc3ccccc23)cc1.[Cl-]` here?
Answer: The Protective ratio was 76.

From ChEMBL document CHEMBL1124268, “Approaches to protection against nerve agent poisoning. (Naphthylvinyl)pyridine derivatives as potential antidotes” (1988)
